The text below walks through data of patent US5851983.

Assay [1] has as its target Calf pancreatic chymotrypsin (Sigma) (calf (bovine)) (UniProt P00766).
In assay [2] the target is Calf pancreatic trypsin (Sigma) (calf (bovine)) (UniProt P00760).
Assay [3] addresses Human plasma kallikrein (human) (UniProt P03952).
For assay [4], the target named is Human plasma plasmin (human) (UniProt P00747).
Assay [5] deals with Human plasma thrombin (human) (UniProt P00734).
Assay [6] concerns the target Polymorphonuclear leukocyte elastase from human sputum (EPC Co.; Funakoshi Yakuhin) (human) (UniProt P08246).
Assay [7] deals with Porcine pancreatic elastase (Sigma) (porcine) (UniProt P00772).

In the case of “aprotinin (Boehringer) (from UniProt P00974)”, the concentration of inhibitory protein which exhibits a 50% inhibition in assay [1] is 50 nM; in assay [2], 100 nM; in assay [3], 70 nM; in assay [4], 5 nM; in assay [5], more than 2 µM; in assay [6], 300 nM. The concentration of inhibitory protein which exhibits a 50% inhibition in assay [7] was more than 2 µM.
